{"source": "patent US9980940B2", "about": "“Composition for the treatment of neuropathies and/or neuropathic pain” (Kolinpharma S.p.A., priority 2014, dated 2018)", "test_system": "THP-1 human monocytes", "conditions": "24 h", "data": [{"smiles": "CC(=O)Oc1c(C)c(C)c2c(c1C)CCC(C)(CCC[C@H](C)CCC[C@H](C)CCCC(C)C)O2", "note": "(some centres unmarked) [Vitamin E acetate]", "values": [{"measurement": "Maximum non-cytotoxic concentration", "setting": "components A, B, C tested individually (lipoic acid, vitamin C, vitamin E acetate together as component B), mortality not greater than 30%", "result": 0.0113, "unit": "mg/mL"}, {"measurement": "Non-cytotoxic concentration", "setting": "each component when tested together (A + B + C)", "result": 0.00023, "unit": "mg/mL"}]}]}
